This note sets out measurements from patent US20030064070A1 (Janssen / Centocor, published 2003).

Amino acid sequences for entries named in this document (tags omitted). Residues count along the entry.
UniProt P01375, 77-233 limits assumed: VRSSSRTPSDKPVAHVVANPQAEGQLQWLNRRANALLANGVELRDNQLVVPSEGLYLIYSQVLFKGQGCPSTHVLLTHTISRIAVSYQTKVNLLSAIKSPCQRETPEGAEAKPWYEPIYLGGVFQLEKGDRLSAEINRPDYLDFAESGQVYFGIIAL

The target in assay [1] is recombinant human TNFα (rhTNF) (human) (UniProt P01375). The experiment in a line: cell-based or functional assay.
The target in assay [2] is T1, recombinant human TNFα (rhTNF) (human, UniProt P01375 77-233).
T1 construct: Several commercial sources were used in the different assays; also called rhTNFα; hTNFα
The experiment in a line: Scatchard analysis, direct binding of 125I-labelled antibody to immobilized rhTNFα in a 96-well plate.

As to chimeric A2 (cA2) anti-TNF antibody, in assay [1], the IL-6 in supernatant of FS-4 fibroblasts, TNF 7.5 ng/ml, antibody 4 µg/ml was 0.3 ng/mL; the plasma clotting time with HUVEC lysate, TNF 25 ng/ml, antibody 0.12 µg/ml worked out at 118 s; the plasma clotting time with HUVEC lysate, TNF 25 ng/ml, antibody 0.37 µg/ml (row printed as 'A2') amounted to 153 s; the plasma clotting time with HUVEC lysate, TNF 25 ng/ml, antibody 1.10 µg/ml turned out to be 145 s. In assay [1], the plasma clotting time with HUVEC lysate, TNF 25 ng/ml, antibody 3.30 µg/ml is 147 s; the plasma clotting time with HUVEC lysate, TNF 25 ng/ml, antibody 10.00 µg/ml is 185 s; the plasma clotting time with HUVEC lysate, TNF 250 ng/ml, antibody 0.12 µg/ml turned out to be 64 s; the plasma clotting time with HUVEC lysate, TNF 250 ng/ml, antibody 0.37 µg/ml (row printed as 'A2') came to 73 s. Besides, in assay [1], the plasma clotting time with HUVEC lysate, TNF 250 ng/ml, antibody 1.10 µg/ml turned out to be 106 s and the plasma clotting time with HUVEC lysate, TNF 250 ng/ml, antibody 10.00 µg/ml amounted to 114 s.

B1: mouse anti-human TNF IgG1 mAb designated A2 (antibody, V domains shown)
VH: EVKLEESGGGLVQPGGSMKLSCVASGFIFSNHWMNWVRQSPEKGLEWVAEIRSKSINSATHYAESVKGRFTISRDDSKSAVYLQMTDLRTEDTGVYYCSRNYYGSTYDYWGQGTTLTVS
VL: DILLTQSPAILSVSPGERVSFSCRASQFVGSSIHWYQQRTNGSPRLLIKYASESMSGIPSRFSGSGSGTDFTLSINTVESEDIADYYCQQSHSWPFTFGSGTNLEVK
In the case of B1, in assay [2], the Ka was found to be 5e+08 M⁻¹.
